Our source for the inhibition values is PubChem BioAssay AID651711 (Broad Institute, 2012).

Chains of the proteins cited; added tags and fusions are not shown.
UniProt Q15084, whole entry: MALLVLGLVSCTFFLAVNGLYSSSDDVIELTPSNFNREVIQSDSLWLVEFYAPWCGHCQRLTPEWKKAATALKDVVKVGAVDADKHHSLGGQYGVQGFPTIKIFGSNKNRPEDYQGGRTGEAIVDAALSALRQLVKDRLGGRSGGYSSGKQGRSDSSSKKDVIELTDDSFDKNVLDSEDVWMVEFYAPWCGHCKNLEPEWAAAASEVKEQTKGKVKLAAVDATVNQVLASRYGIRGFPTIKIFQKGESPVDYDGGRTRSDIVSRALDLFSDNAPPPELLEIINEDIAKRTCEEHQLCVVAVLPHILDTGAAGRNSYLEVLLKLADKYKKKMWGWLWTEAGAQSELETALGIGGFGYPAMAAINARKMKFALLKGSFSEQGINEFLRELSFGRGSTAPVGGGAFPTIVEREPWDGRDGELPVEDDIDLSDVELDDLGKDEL

The entries are a selection whose mix differs from that of the whole data set. Calls of active or inactive are those of the source.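 The calls were made as follows: active = mean replicate inhibition above about 25%, with every replicate also reaching it (limit read from the data, passing the limit was not always enough); inconclusive = only one of those two criteria met; inactive = neither criterion met.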

The target of the assay is Protein disulfide-isomerase A6 (Homo sapiens) (UniProt Q15084). In words: inhibitors of ERp5-driven insulin aggregation, primary screen, biochemical, turbidity, absorbance 650 nm, single point (AID 651711). The note with it: 90 min, at 9.99 µM, active compounds read high.
Consider `N#Cc1ccc(C(=O)NCC2(N3CCCCC3)CCCCC2)cc1`, for which the inhibition – broadly, the change of the read-out against control, counted positive when it falls – was inactive: 2.59%.

Consider `CC(C)(C)OC(=O)N1CCC(N(C(=O)c2ccccc2)c2ccc(Cl)cc2)CC1`, for which the inhibition was inactive: 0.492%.

For `CN(C)C1(CNC(=O)c2cccc(C#N)c2)CCCCC1`, the inhibition was inactive: -0.887%.

As for `C/C(N)=N\P(=O)(Oc1ccccc1)Oc1ccccc1`, the inhibition is inactive: 8.5%.

Consider `Cc1cc(N(CCCl)CCCl)ccc1C=O`, for which the inhibition is inactive: 6.45%.

For `CCCN1CCC(Nc2cc(OC)cc(OC)c2)CC1`, the inhibition is inactive: 3.12%.

As to `O=c1[nH]c2ccccc2n1C1CCN(C(c2ccccc2)c2nnnn2C2CCCC2)CC1` (stereo not drawn), the inhibition was inactive: 1.95%.

Turning to `CC(C)(C)n1nnnc1C(c1cccc2ccccc12)N1CCC(n2c(=O)[nH]c3ccccc32)CC1` (stereo not drawn), the inhibition was inactive: -4.39%.

Regarding `CCCCn1nnnc1C(c1ccccc1)N1CCC(n2c(=O)[nH]c3ccccc32)CC1` (stereo not drawn), the inhibition was inactive: 1.77%.

On to `COc1cc(C(=O)NCC2(N3CCOCC3)CCCCC2)cc(OC)c1C`, for which the inhibition is inactive: 1.01%.

`O=C(NCC1(N2CCOCC2)CCCCC1)c1cc(Br)ccc1Cl`: the inhibition was inactive: 6.43%.

For `O=c1[nH]c2ccccc2n1C1CCN(C(c2cccs2)c2nnnn2C2CCCCC2)CC1` (stereo not drawn), the inhibition was inactive: 9.33%.

For the compound `COc1ccc(C(=O)NCC2(N3CCOCC3)CCCCC2)cc1OC`, the inhibition is inactive: 0.193%.

Regarding `O=c1[nH]c2ccccc2n1C1CCN(C(c2ccnc3ccccc23)c2nnnn2C2CCCC2)CC1` (stereo not drawn), the inhibition was inactive: 2.8%.

For `COc1cccc(C(c2nnnn2C(C)(C)C)N2CCC(n3c(=O)[nH]c4ccccc43)CC2)c1OC` (stereo not drawn), the inhibition is inactive: 9.18%.

On to `CCOC(=O)N1CCC(Nc2ccc(C)cc2)CC1`, for which the inhibition was inactive: 3.07%.

As to `O=c1[nH]c2ccccc2n1C1CCN(C(c2cccs2)c2nnnn2C2CCCC2)CC1` (stereo not drawn), the inhibition is inactive: 5.32%.

Turning to `CCCCn1nnnc1C(c1cccc(OC)c1OC)N1CCC(n2c(=O)[nH]c3ccccc32)CC1` (stereo not drawn), the inhibition was inactive: -5.52%.

For `CN1CCC(Nc2ccc(F)c(Cl)c2)CC1`, the inhibition is inactive: 1.1%.

`CC(C)(C)OC(=O)N1CCC(Nc2ccccc2)CC1`: the inhibition was inactive: -7.03%.

`O=C(O)C1(Nc2ccccc2)CCN(Cc2ccccc2)CC1`: the inhibition was inactive: 9.89%.

In the case of `NN(c1ccccc1)C1CCN(CCc2ccccc2)CC1`, the inhibition was inactive: -2.81%.

In the case of `CCCOc1ccc(C(=O)NCC2(N(C)C)CCCCC2)cc1`, the inhibition is inactive: -0.8%.

Turning to `O=c1[nH]c2ccccc2n1C1CCN(C(c2cc3ccccc3o2)c2nnnn2C2CCCC2)CC1` (stereo not drawn), the inhibition is inactive: 8.64%.

Take `COc1cccc(C(c2nnnn2C2CCCC2)N2CCC(n3c(=O)[nH]c4ccccc43)CC2)c1OC` (stereo not drawn): the inhibition was inactive: -3.62%.

`COc1cc(OC)cc(C(=O)NCC2(N3CCOCC3)CCCCC2)c1`: the inhibition is inactive: -7.91%.

As to `COc1cccc(C(=O)N(c2cc(C)cc(C)c2)C2CCN(C(=O)OC(C)(C)C)CC2)c1`, the inhibition is inactive: -4.07%.

On to `CN1CCC(Nc2ccc(Cl)cc2)CC1`, for which the inhibition is inactive: 3.86%.

Regarding `CC(=O)N(c1ccccc1)C1CCNCC1`, the inhibition is inactive: 2.88%.

Regarding `COc1cccc(C(c2nnnn2C2CCCCC2)N2CCC(n3c(=O)[nH]c4ccccc43)CC2)c1OC` (stereo not drawn), the inhibition was inactive: 3.42%.

`CCC(c1nnnn1C1CCCCC1)N1CCC(n2c(=O)[nH]c3ccccc32)CC1` (stereo not drawn): the inhibition was inactive: 3.92%.

Turning to `O=c1[nH]c2ccccc2n1C1CCN(C(c2ccnc3ccccc23)c2nnnn2C2CCCCC2)CC1` (stereo not drawn), the inhibition was inactive: 5.3%.

Regarding `COc1cc(OC)cc(C(=O)NCC2(N3CCCCC3)CCCCC2)c1`, the inhibition is inactive: -0.098%.

Take `Cc1ccc(C(=O)NCC2(N3CCCCC3)CCCCC2)o1`: the inhibition was inactive: -1.54%.

For the compound `Fc1ccccc1NC1CCN(Cc2ccccc2)CC1`, the inhibition was inactive: -1.48%.

Turning to `Cc1ccc(NC2(C#N)CCN(Cc3ccccc3)CC2)cc1`, the inhibition was inactive: -1.32%.

Regarding `Cc1ccccc1NC1(C#N)CCN(Cc2ccccc2)CC1`, the inhibition is inactive: -8.06%.

As to `CC(C)(C)n1nnnc1C(c1ccnc2ccccc12)N1CCC(n2c(=O)[nH]c3ccccc32)CC1` (stereo not drawn), the inhibition was inactive: -3.39%.

As to `COc1ccc(C(c2nnnn2C2CCCCC2)N2CCC(n3c(=O)[nH]c4ccccc43)CC2)cc1` (stereo not drawn), the inhibition was inactive: 2.49%.

Consider `O=C(NCC1(N2CCCCC2)CCCCC1)c1ccco1`, for which the inhibition was inactive: 3.12%.

For the compound `Cn1c(=O)[nH]cc(N(CCCl)CCCl)c1=O`, the inhibition is inactive: -11%.

For `CN(C)c1ccc(C(=O)NCC2(N3CCCCC3)CCCCC2)cc1`, the inhibition was inactive: -2.86%.

With `CC(C)(C)n1nnnc1C(c1ccccc1)N1CCC(n2c(=O)[nH]c3ccccc32)CC1` (stereo not drawn), the inhibition is inactive: -1.54%.

For the compound `O=C1CCN(Cc2ccccc2)CC1`, the inhibition is inactive: -1.02%.

Consider `CCOc1ccc(C)cc1CN(CCCl)CCCl`, for which the inhibition was inactive: 2.64%.

On to `O=C(NCC1(N2CCCCC2)CCCCC1)c1ccc(F)cc1`, for which the inhibition was inactive: 1.91%.

With `O=P1(N(CCCl)CCCl)SCCCS1`, the inhibition is inactive: 2.46%.

As to `CCCCn1nnnc1C(c1cc2ccccc2o1)N1CCC(n2c(=O)[nH]c3ccccc32)CC1` (stereo not drawn), the inhibition was inactive: 3.04%.

On to `CCCCOc1ccc(C(=O)NCC2(N3CCOCC3)CCCCC2)cc1`, for which the inhibition is inactive: -2.52%.

Regarding `CCOC(=O)N1CCC(Nc2ccc(F)cc2)CC1`, the inhibition is inactive: 1.89%.

As to `O=c1[nH]c2ccccc2n1C1CCN(C(c2ccccc2)c2nnnn2C2CCCCC2)CC1` (stereo not drawn), the inhibition was inactive: -0.55%.

Consider `COc1cc(C(=O)NCC2(N(C)C)CCCCC2)ccc1OC(F)F`, for which the inhibition is inactive: 1.13%.

Consider `CCOC(=O)N1CCC(Nc2cccc(C)c2)CC1`, for which the inhibition is inactive: -0.717%.

In the case of `O=c1[nH]c2ccccc2n1C1CCN(C(c2cccc3ccccc23)c2nnnn2C2CCCC2)CC1` (stereo not drawn), the inhibition was inactive: -1.62%.

Consider `COc1ccc(C(=O)NCC2(N3CCCCC3)CCCCC2)cc1`, for which the inhibition is inactive: 6.68%.

In the case of `CCC(c1nnnn1C1CCCC1)N1CCC(n2c(=O)[nH]c3ccccc32)CC1` (stereo not drawn), the inhibition is inactive: 6.27%.

Consider `CC(C)(C)OC(=O)N1CCC(N(C(=O)c2ccccc2)c2ccc(F)cc2)CC1`, for which the inhibition is inactive: 1.15%.

Consider `COc1ccc(C(=O)NCC2(N3CCCCC3)CCCCC2)c(OC)c1OC`, for which the inhibition was inactive: -1.65%.

`O=C(NCC1(N2CCCCC2)CCCCC1)c1ccc(=O)[nH]c1`: the inhibition was inactive: -0.041%.

With `CCCCn1nnnc1C(c1cccs1)N1CCC(n2c(=O)[nH]c3ccccc32)CC1` (stereo not drawn), the inhibition is inactive: 7.76%.

In the case of `O=C(NCC1(N2CCCCC2)CCCCC1)c1cccs1`, the inhibition is inactive: 6.99%.

On to `CCCCn1nnnc1C(CC)N1CCC(n2c(=O)[nH]c3ccccc32)CC1` (stereo not drawn), for which the inhibition was inactive: -1.28%.

`CSc1ccccc1C(=O)NCC1(N2CCCCC2)CCCCC1`: the inhibition is inactive: -1.83%.

`Cc1cccc(NC2(C#N)CCN(Cc3ccccc3)CC2)c1`: the inhibition is inactive: -4.67%.

`O=c1[nH]c2ccccc2n1C1CCN(C(c2ccccc2OC(F)(F)F)c2nnnn2C2CCCCC2)CC1` (stereo not drawn): the inhibition is inactive: 7.05%.

For `O=C(NCC1(N2CCCCC2)CCCCC1)c1ccc(Cl)nc1`, the inhibition was inactive: 0.702%.

In the case of `Cc1cc(C)cc(N(C(=O)c2ccccc2)C2CCN(C(=O)OC(C)(C)C)CC2)c1`, the inhibition is inactive: -2.36%.

For the compound `O=C(OC1CN2CCC1CC2)C1c2ccccc2Oc2ccccc21` (stereo not drawn), the inhibition is inactive: 3.93%.

As to `O=c1[nH]c2ccccc2n1C1CCN(C(c2cc3ccccc3o2)c2nnnn2C2CCCCC2)CC1` (stereo not drawn), the inhibition is inactive: 1.24%.

For the compound `N#CC1(Nc2ccccc2)CCN(Cc2ccccc2)CC1`, the inhibition was inactive: -2.81%.

For the compound `O=C(NCC1(N2CCCCC2)CCCCC1)c1ccc(Cl)s1`, the inhibition is inactive: 4.87%.

On to `COc1ccc(Cl)cc1C(=O)NCC1(N2CCOCC2)CCCCC1`, for which the inhibition was inactive: -0.113%.

Take `CCOC(=O)N1CCC(Nc2ccc(OC)cc2)CC1`: the inhibition was inactive: 0.195%.

Take `CCCCn1nnnc1C(c1ccc(OC)cc1)N1CCC(n2c(=O)[nH]c3ccccc32)CC1` (stereo not drawn): the inhibition was inactive: -3.64%.

As to `CC(C)c1ccc(NC2CCN(C(=O)OC(C)(C)C)CC2)cc1`, the inhibition was inactive: 2.68%.

`COc1ccc(CN(CCCl)CCCl)cc1Cl`: the inhibition is inactive: 2.08%.

For the compound `CN(C)c1cccc(C(=O)NCC2(N3CCCCC3)CCCCC2)c1`, the inhibition is inactive: 2.13%.

`COc1cc(OC)c(C(=O)NCC2(N(C)C)CCCCC2)cc1OC`: the inhibition is inactive: -1.02%.

On to `O=C(NCC1(N2CCOCC2)CCCCC1)c1cc(F)c(F)cc1Cl`, for which the inhibition is inactive: -18.3%.

Take `CCC(c1nnnn1C(C)(C)C)N1CCC(n2c(=O)[nH]c3ccccc32)CC1` (stereo not drawn): the inhibition was inactive: -0.864%.

As to `CCCCn1nnnc1C(c1ccnc2ccccc12)N1CCC(n2c(=O)[nH]c3ccccc32)CC1` (stereo not drawn), the inhibition is inactive: 0.05%.

Consider `O=C(NCC1(N2CCCCC2)CCCCC1)c1cncc(Br)c1`, for which the inhibition was inactive: 0.749%.

Consider `CN1CCC(Nc2cccc(F)c2)CC1`, for which the inhibition was inactive: -0.285%.

As to `COc1ccc(C(c2nnnn2C2CCCC2)N2CCC(n3c(=O)[nH]c4ccccc43)CC2)cc1` (stereo not drawn), the inhibition was inactive: -1.84%.

Turning to `Cc1ccc(C(=O)NCC2(N(C)C)CCCCC2)o1`, the inhibition is inactive: 0.527%.

As to `CCCOc1ccc(C(=O)NCC2(N(C)C)CCCCC2)cc1OC`, the inhibition is inactive: 6.81%.

`CC(C)(C)n1nnnc1C(c1ccccc1OC(F)(F)F)N1CCC(n2c(=O)[nH]c3ccccc32)CC1` (stereo not drawn): the inhibition is inactive: 0.466%.

With `O=C(NCC1(N2CCCCC2)CCCCC1)c1ccc(OC(F)F)cc1`, the inhibition is inactive: -1.54%.

Consider `CCN1CCC(Nc2ccc(Cl)cc2)CC1`, for which the inhibition is inactive: -0.975%.

Consider `O=c1[nH]c2ccccc2n1C1CCN(C(c2ccccc2OC(F)(F)F)c2nnnn2C2CCCC2)CC1` (stereo not drawn), for which the inhibition is inactive: -2.62%.

Regarding `CSc1ccc(C(=O)NCC2(N3CCOCC3)CCCCC2)cc1`, the inhibition was inactive: -2.35%.

As to `O=C(NCC1(N2CCCCC2)CCCCC1)c1cccc([N+](=O)[O-])c1`, the inhibition is inactive: 3.77%.

Turning to `O=C(NCC1(N2CCCCC2)CCCCC1)c1cccc(C(F)(F)F)c1`, the inhibition is inactive: -2.87%.

As to `COc1cc(C(=O)NCC2(N3CCCCC3)CCCCC2)ccc1OC(F)F`, the inhibition is inactive: -10.3%.

As to `CCCCn1nnnc1C(c1cccc2ccccc12)N1CCC(n2c(=O)[nH]c3ccccc32)CC1` (stereo not drawn), the inhibition is inactive: -0.423%.

In the case of `CN1CCN(CCOC(=O)C(O)(c2ccccc2)c2ccccc2)CC1`, the inhibition was inactive: 14.2%.

On to `CC(C)c1ccc(C(=O)NCC2(N3CCOCC3)CCCCC2)cc1`, for which the inhibition was inactive: -2.78%.

As to `COc1ccc(NC2CCN(C(=O)OC(C)(C)C)CC2)cc1`, the inhibition is inactive: -0.708%.
